Only some compounds are listed: those with a hit (about 1.2% of all), similar ones and a draw of the others.
TbMetRS inhib – Trypanosoma brucei MetRS inhibition; inhibition, % at 11.9 µM; purified T. brucei MetRS, ATP depletion, Kinase-Glo luminescence; actives 0.4% (n = 360,000);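 active means inhibition above a per-plate cutoff of the control wells' mean inhibition plus 3 SD, cut at about 5.5% in these data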
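Material: T. brucei methionyl-tRNA synthetase, purified; reagent: substrates ATP, L-methionine and bulk Escherichia coli tRNA; dosing: 11.9 µM single point; timing: 15 min plus 2 h at 25 °C; detection: luminescence of leftover ATP; evaluation: % inhibition; control set: DMSO-only wells as low control; replicates: singlicate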
Pemphigus Ab inh – inhibitors of pemphigus antibody binding to human desmoglein-3. actives 0.48% (n = 310,000). DSG3-coupled beads, scFv-anti-DSG3-GFP binding, flow cytometry; stronger effect = lower value. AID 588358. P32926. binding (percent of control), % at 10 µM;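 active means binding more than 3 SD below its plate's average and above zero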;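 further: hits lower antibody fragment binding to DSG3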
Rce1 inhib – blocks yeast Ras-converting enzyme; actives 0.27% (n = 290,000); yeast membranes, quenched prenylated peptide cleavage fluorescence; calls only; Q03530;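 active means fall in fluorescence gain of 50% or more versus controls, with final raw signal at or below 3038400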
UUG fidelity – modulators of yeast start codon fidelity, primary screen, whole organism, S. cerevisiae, single point, plate reader | AID 602363, 2012 | actives 0.13% (n = 350,000) | activity score, % at 18.7 µM | S. cerevisiae UUG-firefly luciferase reporter, luminescence/redox ratio;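 active means replicate mean at a twofold rise or more, about +100% in these data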;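 further: firefly luciferase made from a UUG start codon reports start codon fidelity; reporter light over untreated wells divided by growth signal over untreated wells; some hits fall short of that in this replicate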
Arrestin-AP2 inh – blocks beta-arrestin peptide binding to AP2 adaptin; inhibition, % at 10 µM; FITC-arrestin peptide / GST-AP2 beads, flow cytometry; AP2 beta2 appendage carries R879A mutation; AID 504490; actives 0.31% (n = 340,000);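 active means inhibition above a set limit, near 3 SD of compounds lacking own fluorescence, cut at about 54% in these data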
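Measured by: flow cytometry, FL1 (488/535 nm); Material: AP2 appendage R879A on GSH beads; Evaluation: percent response; Timing: pre-incubation 12 min, peptide binding 1 h, room temperature; Also added: 50 nM FITC-arrestin peptide; Medium: PBS with 0.05% Tween 20 and 0.1% BSA.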
Numbers stand for hits; n = inactive; x = no result given; + = active, no number.

SMILES	TbMetRS inhib	Pemphigus Ab inh	Rce1 inhib	UUG fidelity	Arrestin-AP2 inh
O=C1Nc2ccccc2CCc2ccccc21	n	x	x	n	n
O=C1Cc2ccccc2C(=O)N1	22	x	x	x	x
C[C@H](CO)N1C[C@H](C)[C@@H](CN(C)C(=O)Nc2ccc(C(F)(F)F)cc2)OCCCC[C@H](C)Oc2ccc(NC(=O)C3CCCCC3)cc2C1=O	x	x	x	n	x
Cc1ccc(C(CC(=O)NCc2ccco2)c2ccc(OC(C)C)cc2)cc1 (stereo not given)	n	n	n	n	n
COc1ccc(C(CC(=O)NCc2ccco2)c2ccc(F)cc2)cc1 (stereo not given)	n	31	n	n	n
CNC(=O)C[C@H]1CC[C@@H]2[C@H](COc3ccc(NC(=O)Nc4ccccc4OC)cc3C(=O)N2C)O1	x	x	x	n	x
C[C@@H]1CCCCO[C@H](CN(C)S(=O)(=O)c2ccc(F)cc2)[C@@H](C)CN([C@H](C)CO)C(=O)c2cc(NC(=O)CCCN(C)C)ccc2O1	x	x	x	n	x
O=C(CN1CC(=O)Oc2ccccc21)OCC(=O)c1cccc(Br)c1	n	n	n	n	58
Cn1cc(CN2CCC(C(=O)N3CCCCC3)CC2)c(-c2ccccc2F)n1	n	32	n	n	n
Cc1ccccc1SC1CCN(C(=O)C2CCC(=O)N(C3CC3)C2)CC1 (stereo not given)	n	n	n	n	n
O=C(C1CCC(=O)N(C2CC2)C1)N1CCN(c2ccccc2Cl)CC1 (stereo not given)	n	n	+	n	n
C[C@H](CO)N1C[C@H](C)[C@@H](CN(C)C(=O)CCC(F)(F)F)OCCCC[C@H](C)Oc2ccc(NS(C)(=O)=O)cc2C1=O	x	x	x	n	x
Cc1cc(=O)n2ccccc2c1C#N	n	n	+	n	n
COc1ccccc1-c1nnc(N)s1	n	n	+	x	n
CCOc1ccc2nc(SCC(=O)NC3CCCc4ccccc43)sc2c1 (stereo not given)	n	64	n	x	n
CCOc1ccc2nc(SCC(=O)N3CCCc4ccccc43)sc2c1	n	n	n	n	n
CC(C)NC(=O)N(C)C[C@H]1Oc2ccc(NS(=O)(=O)c3ccccc3)cc2CC(=O)N([C@@H](C)CO)C[C@H]1C	x	x	x	n	x
Cn1c(=O)c2c(ncn2CCOc2ccc(F)cc2)n(C)c1=O	n	x	n	n	n
Cn1c(=O)c2c(nc(NCCOc3ccc(F)cc3)n2C)n(C)c1=O	n	91	n	x	n
O=C(CCCN1CCC(O)(c2ccc(Br)cc2)CC1)c1ccc(F)cc1	n	n	x	n	n
O=C(CCCN1CCC(O)(c2ccc(Cl)cc2)CC1)c1ccc(F)cc1	n	53	n	n	n
O=C(C[C@H]1C=C[C@H](NS(=O)(=O)c2ccccc2)[C@H](CO)O1)NCCN1CCCCC1	x	x	x	n	x
CCC(C)n1cnc2c(c1=O)c1nc3ccccc3nc1n2-c1ccc2c(c1)OCCO2 (stereo not given)	n	42	x	n	n
CCC(C)n1cnc2c(c1=O)c1nc3ccccc3nc1n2Cc1ccc2c(c1)OCO2 (stereo not given)	x	x	n	x	x
C[C@H]1COC(=O)[C@@H](Cc2ccc(F)cc2)CC/C=C/C[C@H](CC(=O)N(CCO)Cc2ccccc2)C(=O)N1	n	n	x	n	n
SMILES	TbMetRS inhib	Pemphigus Ab inh	Rce1 inhib	UUG fidelity	Arrestin-AP2 inh
C[C@H]1COC(=O)[C@@H](Cc2ccc(F)cc2)CC/C=C/C[C@@H](CC(=O)N(CCO)Cc2ccccc2)C(=O)N1	n	80	x	n	x
Nc1c(C(=O)N/N=C/c2cccnc2)oc2nc(-c3ccccc3)cc(-c3ccco3)c12	n	n	n	n	n
O=CNn1cnc2c(oc3nc(-c4ccccc4)cc(-c4ccco4)c32)c1=O	n	78	n	x	n
O=C(COc1ccc(S(=O)(=O)N2CCCCC2)cc1)NCc1ccncc1	n	61	n	n	n
CC(=O)Nc1ccc(S(=O)(=O)N2CCC(C(N)=O)(N3CCCCC3)CC2)cc1	n	38	n	n	n
COc1ccccc1CNC(=O)COC(=O)c1ccc(S(=O)(=O)N2CCCCC2)cc1	n	81	x	n	n
COc1ccc(S(=O)(=O)N2CCC(C(N)=O)(N3CCCCC3)CC2)cc1	n	n	n	n	n
CC(=O)Nc1ccc(C(=O)OCC(=O)c2ccc(S(=O)(=O)N3CCCCC3)cc2)cc1	n	29	n	x	n
CC(=O)Nc1cccc(C(=O)OCC(=O)c2ccc(S(=O)(=O)N3CCCCC3)cc2)c1	n	n	n	n	n
O=C(N[C@H]1CC[C@@H](CC(=O)N2CCCCC2)O[C@@H]1CO)c1ccc2c(c1)OCO2	x	x	x	n	x
CCOc1cc(/C=C2/NC(=O)N(CC(=O)Nc3cccc(C)c3)C2=O)ccc1OCC(N)=O	n	50	n	x	n
Cc1cc(C)nc(SCC(=O)N/N=C/c2cccc([N+](=O)[O-])c2)n1	n	n	n	n	n
C/C(=N\NC(=O)CSc1nc(C)cc(C)n1)c1cccc([N+](=O)[O-])c1	n	66	n	x	n
CSc1nc(N(C)CCO)c2sc3nc(-c4ccco4)c4c(c3c2n1)CCC4	n	n	n	n	n
CSc1nc(SCC(=O)O)c2sc3nc(-c4ccccc4)c4c(c3c2n1)CCC4	n	66	n	n	n
C[C@@H]1CN([C@@H](C)CO)C(=O)Cc2cc(NS(=O)(=O)c3cn(C)cn3)ccc2O[C@@H]1CN(C)C(=O)NC1CCCCC1	x	x	x	n	x
CCc1cc2cc3c(cc2nc1SCC(=O)Nc1cc(C)on1)OCO3	n	87	n	n	n
CCOC(=O)c1c(NC(=O)C2C3C=CC(C3)C2C(=O)O)sc2c1CCC(C)C2 (stereo not given)	n	n	n	n	n
CCOC(=O)c1c(NC(=O)C2C3C=CC(C3)C2C(=O)O)sc2c1CCCC2 (stereo not given)	n	37	n	x	n
C[C@@H]1CN([C@@H](C)CO)C(=O)c2cc(NC(=O)Nc3ccc(F)cc3)ccc2O[C@@H](C)CCCCO[C@H]1CN(C)C(=O)CCCN(C)C	x	x	x	n	x
O=C(C[C@H]1C=C[C@@H](NC(=O)Nc2cccc(F)c2)[C@@H](CO)O1)NCC1CC1	x	x	x	n	x
Cc1ccc(S(=O)(=O)N2C[C@H]3n4c(=O)ccc(=O)n4C[C@H](OC(=O)Nc4c(C)noc4C)[C@@]3(O)C2)cc1	n	92	x	n	x
Cc1ccc(S(=O)(=O)N2C[C@H]3n4c(=O)ccc(=O)n4C[C@H](OC(=O)NC4CC4)[C@@]3(O)C2)cc1	n	x	x	n	x
CCOc1c2ccc(C(=O)NCc3ccco3)cc2nn1CCOC	n	n	+	n	n
CCCCn1nc2cc(C(=O)NCc3ccco3)ccc2c1OCC	n	n	n	n	n
NC(=O)NCC#Cc1ccc2c(c1)[C@]1(C(=O)N2)[C@H](C(=O)O)[C@H]2C(=O)O[C@H](c3ccccc3)[C@H](c3ccccc3)N2[C@@H]1c1ccc(OCCO)cc1	x	x	x	n	x
C[C@@H]1CN([C@@H](C)CO)C(=O)c2cc(C#Cc3ccccc3F)cnc2O[C@H]1CN(C)S(=O)(=O)c1ccccc1F	x	x	x	n	x
O=C1C=CC(=O)N1c1ccc(O)cc1	n	n	n	x	n
O=C1C=CC(=O)N1c1ccc(OC(F)F)cc1	n	62	x	x	n
